Measured values published in patent US4101676A, “Diphenylpropylamines to treat depression” (Beecham Group Limited, priority 1973, dated 1978).

Target: T1, Guinea Pig Ileum (Cavia porcellus)
T1 construct: from tissue; host or cells: guinea pig ileum
Assay: pA2 Determination on Guinea Pig Ileum (antagonism to Acetylcholine)
Settings: in vitro, read-out: pA2 on Iillium (converted)
Excerpt: It is thus a means of expressing anticholinergic activity which is independent of the dose of Acetylcholine and the piece of tissue used. The method used is similar to that of Schild, [Brit. J. Pharmacol. 14 (1959) 48] the tissue being bathed in Tyrode solution and a dose response curved for Acetylcholine being obtained.

- Kb: 10 nM
Compound: CN(C)CCC=C1c2ccccc2CCc2ccccc21 [Amitriptyline hydrochloride, reference compound]

Structures can show the parent of a compound that is named as a salt.
